Source: publication PMC10213809 (Cell Reports Medicine, 2023)

Test system: RSV
Assay type: cell-based, respiratory syncytial virus

IFN-β was tested, and the “inhibition of RSV infection” value was “efficient inhibition”.
